AlphaSeq binding of Ab-14 light chain variants to a spike HR2 peptide

Target peptide (SARS-CoV-2 spike, HR2 region): PDVDLGDISGINAS

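The parent was found by panning a naive human phage display library on the peptide. The variants were designed computationally from a first round of random CDR variants and then made and measured. Several design methods are mixed in this list. AlphaSeq pools MATa yeast showing the antibodies with MATalpha yeast showing the peptide. After mating in shaken culture at 30 °C for 16 h, diploids were selected and their barcode pairs sequenced. The ratio of observed to expected reads was calibrated, replicate by replicate, on BCL2-family standards whose Kd was known from biolayer interferometry. There are six technical replicates.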

Each scFv is VH, the linker GGGGSGGGGSGGGGS, VL, as in the parent Ab-14, and differs from it in the CDRs of the light chain only.
VH: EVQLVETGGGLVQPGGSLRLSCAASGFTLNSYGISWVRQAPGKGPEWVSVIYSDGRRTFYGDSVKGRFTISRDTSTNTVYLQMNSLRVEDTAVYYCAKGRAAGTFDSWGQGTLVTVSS
VL: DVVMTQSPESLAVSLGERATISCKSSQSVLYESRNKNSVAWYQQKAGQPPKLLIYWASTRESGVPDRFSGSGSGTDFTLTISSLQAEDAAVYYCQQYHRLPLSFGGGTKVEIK

Each variant is given by its three light chain CDRs, as the data file delimits them; those of the parent are KSSQSVLYESRNKNSVA, WASTRES, QQYHRLPLS. This list holds designs with more than six substitutions. The Kd shown is the geometric mean over detected replicates; a lower Kd is a better binder. "nd" means that the variant was in the library but no mating with the target was seen in any replicate; the authors take this as a sign of poor binding, and no number exists.

| CDR-L1 | CDR-L2 | CDR-L3 | apparent Kd | replicates with signal |
|---|---|---|---|---|
| KVSILDLGGDRNKNSVA | HASLREQ | QQYHRLPLS | 780 pM | 6 of 6 |
| FMRMECYGYQNYGNSIA | HGNIRHN | QQYSRLPFS | 49 nM | 5 of 6 |
| MMSQVTGMGSRQRNNVA | QTSTREP | QQYDRLPLI | 3.3 nM | 6 of 6 |
| KISMLQRYQQNAKNNIA | EMSRREE | QQYHRLPLS | 740 pM | 6 of 6 |
| KIGGVTNGISRNKSSVA | EQSTRED | QQYNRLPLS | 21 nM | 6 of 6 |
| KWSQLVLGEDRNKMSVA | NASQREE | QQYHRLPLS | 2.2 nM | 6 of 6 |
| TIAESMLYLSNLKNSIA | QAETRES | QQYHRLPIS | 4.4 nM | 6 of 6 |
| KLSMSVDYESRMCNSVA | EASQREE | QQYHRLPLS | 2.3 nM | 6 of 6 |
| TLYGLTNSMSKNKDNVA | EMSTREL | QQYDRLPLI | 11 nM | 6 of 6 |
| SLMQVGGYESNNHNSIA | DLRTREQ | QQYHRLPLS | 1.7 nM | 6 of 6 |
| KLSQSVEQLSRNKNSVA | QASQREV | QAYHRLPLS | 1.4 nM | 6 of 6 |
| NLSMELEDATVKDMSIA | DAELSTM | QQYMRLPLS | 15 nM | 6 of 6 |
| MFSQLFMYGSRNYNSIA | QASTRES | QQYHRLPLI | 9.0 nM | 6 of 6 |
| NMQMQDDRMQNAKQNVA | GVDMREE | QQYFRLPFL | 1.2 nM | 6 of 6 |
| MAYGGDMLETVTRNSVA | NAETRAD | QDYHRLPLS | 170 nM | 6 of 6 |
| KIEQILFPYGNSWHSVA | NANTLLA | QQYYMLPLM | 17 nM | 6 of 6 |
| MMSQVTGLGQRHRNNVA | QTSTRED | QQYDHLPLI | 5.9 nM | 6 of 6 |
| KLSLVTGHMSMAKNNVA | EMVTREK | QQYNRLPLS | 2.6 nM | 6 of 6 |
| KLSLSVLLESRDVNAVA | EASTRES | QDYHRLPLS | 17 nM | 6 of 6 |
| KIQQSVYYESLNQNSVA | NASTRLS | QQYHRLPLS | 4.0 nM | 6 of 6 |
| KIGATLNQMMHKKNNVA | DLVTREQ | QQYHRLPLS | 1.7 nM | 6 of 6 |
| KIQQFYEGESRNKNSVA | SASTRES | QQYHRLPLS | 660 pM | 6 of 6 |
| KVSEFMKGLMMRKDSIA | DNTTRGS | QQYDRLPLS | 43 nM | 6 of 6 |
| KLSQSWLYLSRNMNAVA | EASQRLS | QDYHRLPLS | 3.3 nM | 6 of 6 |
| MMSQVTALGQRHRNNVA | QTSTREP | QQYDRLPLI | 12 nM | 6 of 6 |
| HMSLLTLSGLRNRNSVA | QMTTREN | QQYDRLPLA | 12 nM | 6 of 6 |
| GFSDQITEQIAHANSIA | DRDERDV | QQYSRLPLI | 1.9 nM | 6 of 6 |
| KISQSILFMSGKKNAIA | QMEMREE | QQYDRLPLS | 16 nM | 4 of 6 |
| MISQLYNMGSFAINSVA | QASIRNS | QQYDRLPLM | 20 nM | 6 of 6 |
| MVTQMAMSGMTNKRSVA | NAETREK | QQYHRLPLI | nd | 0 of 6 |
| SLYEITQELSGKKHSVA | DNSTRGE | QQYFRLPLD | 430 nM | 4 of 6 |
| KVSQGMWYESRNKNSVA | DASQRES | QQYHRLPLQ | 680 pM | 6 of 6 |
| HISQMVMYGSCNMNNVA | QVSTREE | QQYHRLPLS | 3.1 nM | 6 of 6 |
| KLEQSELYQSRNKQSVA | NASERES | QQYHRLPLS | 6.1 nM | 6 of 6 |
| KARQSQLYESRNQNSVA | NASQRLQ | QQYHRLPLS | 930 pM | 6 of 6 |
| KLQQSEGYESRNQNAVA | AASQREE | QQYHRLPLS | 610 pM | 6 of 6 |
| KLLSLSLHQTGKLNSVA | DAEITQT | QQYMSLPLM | 64 nM | 5 of 6 |
| FIQGFGENSNRNSKNIA | SKETRQV | QQYDRLPLS | 1.5 nM | 6 of 6 |
| KLQMSELPESRNKNSVA | WASLRET | QQYHRLPLS | 3.4 nM | 6 of 6 |
| KLMMFMQEIGIMKNNIA | NLEIGAR | QQYAQLPLV | nd | 0 of 6 |
| MISQLMNLGQFAINSVA | QASIRNA | QQYDRLPLM | 56 nM | 2 of 6 |
| KLSQSVWMLERNKNSVA | NASYRES | QQYHRLPLS | 570 pM | 6 of 6 |
| KSSTSLPYESRNVNSVA | WAEKRES | QQYHRLPAS | nd | 0 of 6 |
| QLPFYRGDGYLQKNNVA | EGTERSH | QQYMRLPLF | 490 pM | 6 of 6 |
| NLGFEDANDNRGMMAVA | DVNTVGE | QHYNRLPLA | 180 nM | 3 of 6 |
| KLYQATAMTSSMRNNVA | DLNERER | QQYFRLPLS | 1.5 nM | 6 of 6 |
| TISMVMNHMTRIDNNVA | NQDMREN | QQYDRLPLS | 15 nM | 6 of 6 |
| KLYERGEGSQKVDRSIA | EMSTRCE | QSYQRLPLS | 23 nM | 6 of 6 |
| KLDQSVGYESRNKNNVA | GGSQRES | QQYHRLPLS | 2.4 nM | 6 of 6 |
| TLYGLSVSMSKNKNSVA | EMTTREK | QQYDRLPLI | 24 nM | 6 of 6 |
| HQSPSVLYESRMKNSVA | NGSTREV | QQYHRLPLS | 1.1 nM | 6 of 6 |
| QLSDLVKMESRNTNSVA | DNSTRGS | QQYDRLPLS | 91 nM | 1 of 6 |
| KFYSAWSGEEQNNNNIA | SADTLNH | QQYWTLPLS | 8.5 nM | 6 of 6 |
| MLWQQDEGFNGVKDAIA | NAELREG | QQYGRLPLS | 42 nM | 5 of 6 |
| KIQQEGYYEDRNKNSVA | SASTRCP | QQYHRLPLS | 1.2 nM | 6 of 6 |
| KVSQSVLMLSRNKNSVA | DNSTSGS | QQYHRLPLS | 16 nM | 6 of 6 |

The closing 5 entries, repeated:

{"CDR-L1": "QLSDLVKMESRNTNSVA", "CDR-L2": "DNSTRGS", "CDR-L3": "QQYDRLPLS", "apparent Kd": "91 nM", "replicates with signal": "1 of 6"}
{"CDR-L1": "KFYSAWSGEEQNNNNIA", "CDR-L2": "SADTLNH", "CDR-L3": "QQYWTLPLS", "apparent Kd": "8.5 nM", "replicates with signal": "6 of 6"}
{"CDR-L1": "MLWQQDEGFNGVKDAIA", "CDR-L2": "NAELREG", "CDR-L3": "QQYGRLPLS", "apparent Kd": "42 nM", "replicates with signal": "5 of 6"}
{"CDR-L1": "KIQQEGYYEDRNKNSVA", "CDR-L2": "SASTRCP", "CDR-L3": "QQYHRLPLS", "apparent Kd": "1.2 nM", "replicates with signal": "6 of 6"}
{"CDR-L1": "KVSQSVLMLSRNKNSVA", "CDR-L2": "DNSTSGS", "CDR-L3": "QQYHRLPLS", "apparent Kd": "16 nM", "replicates with signal": "6 of 6"}

The parent sequence was in this pool as ten entries: three were never detected, three once, and four in most replicates, with averages from 2.2 nM to 240 nM. The range of this assay differs from that of the first round, and the authors advise against merging the two. The authors' rule: three or more of the six replicates give a measured affinity, fewer mean a poor binder. As a blank, each scFv also met three strains without target: over all light chain designs, 4% of these pairings were detected, typically at 430 nM and seldom below 38 nM.

The measurements come from Li et al. 2023 (doi:10.1038/s41467-023-39022-2) through the FLAb antibody collection.